Tests used:
MES-SA cells [1] = assay: chemosensitization effect in non-MDR cell line; type: cell-based, human; details: agent in the presence of GdT2BET; wild-type MES-SA
MES-SA cells [2] = assay: modified MTT cytotoxicity assay, chemotherapeutic agent and GdT2BET added together; details: agent with GdT2BET 50, 100, 150 μM; summary of Examples 1 and 3-6
MES-SA/Dx5 cells = assay: chemosensitization effect in doxorubicin-selected mdr1 variant; type: cell-based, human; details: agent in the presence of GdT2BET

With `O=P1(N(CCCl)CCCl)NC(O)CCO1` (stereo not drawn) the “effectiveness in the presence of texaphyrin” value (MES-SA cells [1]) was “effective”, the “IC50 difference relative to control / cytotoxicity in the presence of texaphyrin (FIG. 2)” value (MES-SA cells [2]) was “enhanced cytotoxicity” and the “effectiveness in the presence of texaphyrin” value (MES-SA/Dx5 cells) was “effective”.

From patent publication US5776925A, “Methods for cancer chemosensitization” (Pharmacyclics, Inc., priority 1996, dated 1998)
